# pIC50: −log10 of the molar value.
# Chains of the proteins cited; added tags and fusions are not shown. Residues count along the entry.
# UniProt P06756, 891-1048 limits assumed: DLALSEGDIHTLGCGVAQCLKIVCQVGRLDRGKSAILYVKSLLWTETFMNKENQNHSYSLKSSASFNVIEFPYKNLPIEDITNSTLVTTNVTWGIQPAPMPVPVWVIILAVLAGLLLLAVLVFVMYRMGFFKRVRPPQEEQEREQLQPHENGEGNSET
# UniProt P06756, 31-889 limits assumed: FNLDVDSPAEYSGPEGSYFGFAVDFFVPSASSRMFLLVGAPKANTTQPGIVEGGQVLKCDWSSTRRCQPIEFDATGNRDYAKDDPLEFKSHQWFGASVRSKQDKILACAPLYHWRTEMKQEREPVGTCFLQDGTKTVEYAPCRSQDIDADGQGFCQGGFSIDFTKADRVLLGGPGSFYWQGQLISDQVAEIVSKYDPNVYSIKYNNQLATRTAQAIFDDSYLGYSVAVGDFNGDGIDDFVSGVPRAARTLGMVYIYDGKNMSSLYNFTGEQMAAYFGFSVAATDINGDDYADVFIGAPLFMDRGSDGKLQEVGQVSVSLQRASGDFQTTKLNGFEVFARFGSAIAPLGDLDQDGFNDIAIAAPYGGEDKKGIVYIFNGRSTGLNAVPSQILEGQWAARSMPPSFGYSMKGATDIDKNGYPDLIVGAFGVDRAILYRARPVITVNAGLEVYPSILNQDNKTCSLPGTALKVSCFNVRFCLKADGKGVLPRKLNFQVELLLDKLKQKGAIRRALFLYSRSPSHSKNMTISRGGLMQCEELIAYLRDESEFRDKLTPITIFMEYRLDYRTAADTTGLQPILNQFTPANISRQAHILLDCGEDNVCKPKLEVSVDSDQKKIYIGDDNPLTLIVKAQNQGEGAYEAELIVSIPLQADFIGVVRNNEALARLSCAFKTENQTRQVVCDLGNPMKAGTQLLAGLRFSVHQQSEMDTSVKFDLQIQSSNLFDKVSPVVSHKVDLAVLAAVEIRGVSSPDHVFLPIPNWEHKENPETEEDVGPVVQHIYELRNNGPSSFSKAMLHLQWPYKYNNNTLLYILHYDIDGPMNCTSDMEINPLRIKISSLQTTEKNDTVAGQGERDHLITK
# UniProt P18084, 24-799: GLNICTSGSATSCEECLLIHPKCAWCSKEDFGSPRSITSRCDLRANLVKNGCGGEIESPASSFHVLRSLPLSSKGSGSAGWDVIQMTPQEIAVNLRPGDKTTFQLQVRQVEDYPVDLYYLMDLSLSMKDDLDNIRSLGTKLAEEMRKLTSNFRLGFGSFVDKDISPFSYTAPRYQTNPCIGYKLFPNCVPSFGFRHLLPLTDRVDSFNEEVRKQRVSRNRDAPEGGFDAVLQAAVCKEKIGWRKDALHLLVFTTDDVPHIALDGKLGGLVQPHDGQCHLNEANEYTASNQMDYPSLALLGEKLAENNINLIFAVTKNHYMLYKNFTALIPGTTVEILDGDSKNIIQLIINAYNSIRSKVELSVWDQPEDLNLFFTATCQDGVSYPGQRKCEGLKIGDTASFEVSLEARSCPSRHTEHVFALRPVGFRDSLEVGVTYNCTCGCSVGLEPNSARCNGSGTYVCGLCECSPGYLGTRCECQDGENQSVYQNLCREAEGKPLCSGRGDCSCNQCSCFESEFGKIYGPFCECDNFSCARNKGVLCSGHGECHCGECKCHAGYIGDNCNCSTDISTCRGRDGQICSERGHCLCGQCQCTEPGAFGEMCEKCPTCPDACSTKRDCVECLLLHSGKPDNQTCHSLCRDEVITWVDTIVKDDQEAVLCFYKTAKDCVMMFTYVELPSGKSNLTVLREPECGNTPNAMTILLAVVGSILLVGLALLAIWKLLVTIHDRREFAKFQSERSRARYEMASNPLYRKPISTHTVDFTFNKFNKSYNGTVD
# UniProt P18564, 22-788: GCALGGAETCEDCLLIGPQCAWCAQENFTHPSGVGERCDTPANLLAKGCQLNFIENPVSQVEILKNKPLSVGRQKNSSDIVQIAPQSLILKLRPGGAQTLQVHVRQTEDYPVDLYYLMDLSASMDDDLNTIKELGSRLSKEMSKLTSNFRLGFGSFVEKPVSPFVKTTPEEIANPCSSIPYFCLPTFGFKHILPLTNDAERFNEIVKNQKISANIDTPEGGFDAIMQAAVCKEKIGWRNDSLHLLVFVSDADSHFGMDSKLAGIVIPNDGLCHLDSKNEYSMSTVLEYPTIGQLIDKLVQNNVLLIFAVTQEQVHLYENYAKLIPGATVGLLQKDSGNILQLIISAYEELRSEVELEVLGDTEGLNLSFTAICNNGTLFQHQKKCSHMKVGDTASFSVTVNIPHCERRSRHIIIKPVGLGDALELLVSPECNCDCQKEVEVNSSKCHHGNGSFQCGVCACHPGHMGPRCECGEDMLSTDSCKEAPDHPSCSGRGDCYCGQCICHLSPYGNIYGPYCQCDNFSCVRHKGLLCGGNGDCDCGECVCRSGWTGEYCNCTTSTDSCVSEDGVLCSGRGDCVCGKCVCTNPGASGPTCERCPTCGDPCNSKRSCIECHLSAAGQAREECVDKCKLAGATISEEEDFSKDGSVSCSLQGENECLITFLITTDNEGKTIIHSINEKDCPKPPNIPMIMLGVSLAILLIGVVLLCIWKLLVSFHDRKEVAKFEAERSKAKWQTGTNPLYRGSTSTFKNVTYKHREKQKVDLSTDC
# Legend:
# integrin αvβ5 = molecular target: T1, integrin αvβ5 (Homo sapiens, UniProt P06756+P18084); assay: Cell adhesion inhibition: HT-29 cells to vitronectin; assay type: cell-based; settings: adhesion of HT-29 cells to vitronectin; read-out: IC50 [Interaction towards targets] αvβ5
# T1 construct: host or cells: HT-29
# integrin αvβ6 = molecular target: T2, integrin αvβ6 (Homo sapiens, UniProt P06756+P18564); assay: Cell adhesion inhibition: HT-29 cells to fibronectin; assay type: cell-based; settings: adhesion of HT-29 cells to fibronectin; read-out: IC50 [Interaction towards targets] αvβ6
# T2 construct: host or cells: HT-29
substance,measurement,setting,value
"rhodostomin [Rho wild-type, reference compound]",pIC50,integrin αvβ5,7.03
same,pIC50,integrin αvβ6,6.75

# — patent publication US10870684B2, “Disintegrin variants and pharmaceutical uses thereof” (National Cheng Kung University, priority 2014, dated 2020)
